Laboratory results: PMC7253423, “Quassinoid analogs with enhanced efficacy for treatment of hematologic malignancies target the PI3Kγ isoform” (Communications Biology, 2020)
Several values for one entry are separate records, joined by “and”; a condition that tells them apart may be missing. Identical values can stand only once.

Experiments:
[1] = test system: NPC43 cells; test: Cell viability assay (CellTiter-Glo luminescence); format: cell-based, human; conditions: Fig 4a
Description: (§1) 5000 cells as indicated were cultured in 96-well plate with 100 μl of media. On the next day, Brusatol or associated analogs were added once to the cells without media change. After treatment, the cells were incubated with 100 μl buffer for 10 min at room temperature following the instructions of CellTiter-Glo kit (Promega, Madison, WI). Luminescence was detected using a multi-mode reader Cytation 5 (BioTek, Winooski, VT). Brusatol or its analogs are dissolved in 100% ethanol and diluted in 1 × PBS for treatment. Two independent experiments done in duplicates were performed.

[2] = test system: RPMI-8226 cells; test: Cell viability assay (CellTiter-Glo luminescence); format: cell-based, human; conditions: Fig 3a
Description: as §1

[3] = test system: SU-DHL-10 cells; test: Cell viability assay (CellTiter-Glo luminescence); format: cell-based, human; conditions: Fig 3a
Description: as §1

[4] = test system: SU-DHL-4 cells; test: Cell viability assay (CellTiter-Glo luminescence); format: cell-based, human; conditions: for relative cell viability (Fig 6d), replicates: fraction of 0 μM control
Description: as §1

[5] = test system: SU-DHL-6 cells; test: Cell viability assay (CellTiter-Glo luminescence); format: cell-based, human; conditions: SU-DHL-6, relative to Control, Fig 1d / Fig 5a
Description: as §1

[6] = In vivo toxicity test, survival rate; set-up: species or system NOD/SCID mice; conditions: for survival event status per mouse (Fig 6i; 1 = event/death, 0 = censored): 10mg/kg
Description: To determine the toxicity of Brusatol, #15 and #26 compounds, 6-week-old male NOD.CB17-Prkdc^scid/J (NOD/SCID) mice (Jackson Labs, Bar Harbor, ME, USA; 4 mice per group) were intraperitoneally injected with a maximum dose of 10 mg/kg of Brusatol, #15 or #26 compound every other day (three times per week). The survival rate was recorded to monitor the tolerance of the compounds in these mice.

[7] = test system: MOLM14 xenografts; test: mRNA expression in xenograft tumors in vivo; set-up: species or system NOD/SCID mice; conditions: Ctrl = 1, Fig S3j
Description: Real-time PCR experiments were performed as previously described. The experiments were performed in triplicate.
Six-week-old male NOD.CB17-Prkdc^scid/J (NOD/SCID) mice (Jackson Labs, Bar Harbor, ME, USA) were used as the human-in-mouse xeno-transplantation model. MOLM14 cells (1 × 10^7 cells) were injected into the subcutaneous space on the left flank of the mice. Once xenografts reached a size of 100 mm^3, Brusatol and analogs (#14, #15, #26, #31) at 2 mg/kg body weight or PBS were injected intraperitoneally three times per week. Body weight and tumor size were monitored before every injection. After treatment for 2 weeks, the mice were euthanized by CO2 inhalation and the tumors were carefully excised. The tumor volume (mm^3) was measured and calculated using the formula (a × b × b)/2 (a, the largest diameter of two measurements; b, the smallest diameter of two measurements).

For Brusatol, which Relative cell viability ([1]; NPC43, Con. 0.00390625 μM) is on record?
Its Relative cell viability is 1.024 and 1.0649.

And the Relative cell viability ([1]; NPC43, Con. 0.015625 μM)?
The Relative cell viability was 1.008 and 1.084.

And the Relative cell viability ([1]; NPC43, Con. 0.0625 μM)?
The Relative cell viability was 0.9475 and 0.9014.

And the Relative cell viability ([1]; NPC43, Con. 0.25 μM)?
Its Relative cell viability is 0.5585 and 0.6588.

What about the Relative cell viability ([1]; NPC43, Con. 1 μM) of the same substance?
Its Relative cell viability is 0.445 and 0.471.

What about the Relative cell viability ([2]; RPMI-8226, Con. 0.000244141 μM) of the same substance?
The Relative cell viability was 1.059 and 0.8864.

What about the Relative cell viability ([2]; RPMI-8226, Con. 0.000976563 μM) of the same substance?
Its Relative cell viability is 0.9317 and 0.797.

And the Relative cell viability ([2]; RPMI-8226, Con. 0.00390625 μM)?
Its Relative cell viability is 0.4331 and 0.4665.

And the Relative cell viability ([2]; RPMI-8226, Con. 0.015625 μM)?
The Relative cell viability was 0.09043 and 0.07441.

And the Relative cell viability ([2]; RPMI-8226, Con. 0.0625 μM)?
The Relative cell viability was 0.06279 and 0.05226.

What about the Relative cell viability ([2]; RPMI-8226, Con. 0.25 μM) of the same substance?
The Relative cell viability was 0.05297 and 0.05028.

And the Relative cell viability ([2]; RPMI-8226, Con. 1 μM)?
The Relative cell viability was 0.05158 and 0.05215.

And the Relative cell viability ([3]; SU-DHL-10, Con. 0.000244141 μM)?
The Relative cell viability was 1.359 and 1.404.

What about the Relative cell viability ([3]; SU-DHL-10, Con. 0.000976563 μM) of the same substance?
Its Relative cell viability is 1.257 and 1.158.

What about the Relative cell viability ([3]; SU-DHL-10, Con. 0.00390625 μM) of the same substance?
The Relative cell viability was 0.3529 and 0.2618.

What about the Relative cell viability ([3]; SU-DHL-10, Con. 0.015625 μM) of the same substance?
The Relative cell viability was 0.06855 and 0.07532.

And the Relative cell viability ([3]; SU-DHL-10, Con. 0.0625 μM)?
The Relative cell viability was 0.0486 and 0.04989.

What about the Relative cell viability ([3]; SU-DHL-10, Con. 0.25 μM) of the same substance?
The Relative cell viability was 0.03432 and 0.03338.

And the Relative cell viability ([3]; SU-DHL-10, Con. 1 μM)?
The Relative cell viability was 0.03538 and 0.0343.

And the Relative cell viability ([4]; SU-DHL-4, Con. 0.000244141 μM, Fig 3a)?
The Relative cell viability was 1.153 and 0.8294.

What about the Relative cell viability ([4]; SU-DHL-4, Con. 0.000244141 μM, Fig 4a) of the same substance?
The Relative cell viability was 0.8035 and 0.8856.

And the Relative cell viability ([4]; SU-DHL-4, Con. 0.000976563 μM, Fig 4a)?
Its Relative cell viability is 0.4905 and 0.4207.

What about the “relative cell viability (Fig 6d), replicates” value ([4]; SU-DHL-4, Con. 0.00244141 μM) of the same substance?
The value was 1.534 and 1.104.

What about the Relative cell viability ([4]; SU-DHL-4, Con. 0.00390625 μM, Fig 3a) of the same substance?
The Relative cell viability was 0.113 and 0.06547.

And the Relative cell viability ([4]; SU-DHL-4, Con. 0.00390625 μM, Fig 4a)?
Its Relative cell viability is 0.1671 and 0.2096.

What about the “relative cell viability (Fig 6d), replicates” value ([4]; SU-DHL-4, Con. 0.00976562 μM) of the same substance?
Its value is 1.3333 and 1.429.

And the Relative cell viability ([4]; SU-DHL-4, Con. 0.015625 μM, Fig 3a)?
The Relative cell viability was 0.04732 and 0.03797.

What about the Relative cell viability ([4]; SU-DHL-4, Con. 0.015625 μM, Fig 4a) of the same substance?
The Relative cell viability was 0.128 and 0.2431.

What about the “relative cell viability (Fig 6d), replicates” value ([4]; SU-DHL-4, Con. 0.0390625 μM) of the same substance?
The value was 1.114 and 0.7293.

And the Relative cell viability ([4]; SU-DHL-4, Con. 0.0625 μM, Fig 3a)?
The Relative cell viability was 0.03046 and 0.03255.

What about the Relative cell viability ([4]; SU-DHL-4, Con. 0.0625 μM, Fig 4a) of the same substance?
Its Relative cell viability is 0.1193 and 0.1216.

And the “relative cell viability (Fig 6d), replicates” value ([4]; SU-DHL-4, Con. 0.15625 μM)?
The value was 0.3764 and 0.3448.

And the Relative cell viability ([4]; SU-DHL-4, Con. 0.25 μM, Fig 3a)?
The Relative cell viability was 0.02502 and 0.02181.

And the Relative cell viability ([4]; SU-DHL-4, Con. 0.25 μM, Fig 4a)?
The Relative cell viability was 0.1169 and 0.1247.

What about the “relative cell viability (Fig 6d), replicates” value ([4]; SU-DHL-4, Con. 0.625 μM) of the same substance?
The value was 0.1642 and 0.114.

What about the Relative cell viability ([4]; SU-DHL-4, Con. 1 μM, Fig 3a) of the same substance?
Its Relative cell viability is 0.02033 and 0.01885.

And the Relative cell viability ([4]; SU-DHL-4, Con. 1 μM, Fig 4a)?
The Relative cell viability was 0.1402 and 0.197.

What about the “relative cell viability (Fig 6d), replicates” value ([4]; SU-DHL-4, Con. 2.5 μM) of the same substance?
The value was 0.06413 and 0.06818.

What about the “relative cell viability (Fig 6d), replicates” value ([4]; SU-DHL-4, Con. 10 μM) of the same substance?
Its value is 0.06047 and 0.06384.

And the Relative cell viability ([4]; SU-DHL-4, relative to Control, Fig 1d / Fig 5a)?
The Relative cell viability was 0.132 and 0.08098.

And the Relative cell viability [5]?
The Relative cell viability was 0.143 and 0.1591.

What about the “toxicity in vivo (survival)” value ([6]; 10 mg/kg intraperitoneally every other day, monitored 24 days, 4 mice per group) of the same substance?
Its value is “obviously lethal for the majority of mice within the first 4 days”.

And the “survival event status per mouse (Fig 6i; 1 = event/death, 0 = censored)” value ([6]; Days Post-treatment 2)?
Its value is 1.

And the “survival event status per mouse (Fig 6i; 1 = event/death, 0 = censored)” value ([6]; Days Post-treatment 3)?
The value was 1.

What about the “survival event status per mouse (Fig 6i; 1 = event/death, 0 = censored)” value ([6]; Days Post-treatment 24) of the same substance?
Its value is 0.

What about the “GSK3B mRNA expression relative to Ctrl” value [7] of the same substance?
Its value is 0.7303.

And the “PIK3CG mRNA expression relative to Ctrl” value [7]?
The value was 1.196.
